The source of these data is patent US11186582B2, “Substituted [1,2,4]triazolo[1,5-a]pyrimidin-7-yl compounds as PDE2 inhibitors” (DART NEUROSCIENCE (CAYMAN) LTD., priority 2014, dated 2021).

Sequences of proteins named here, by UniProt entry; tags and fusion partners are left off. Residues count along the entry.
UniProt O00408, 2-941: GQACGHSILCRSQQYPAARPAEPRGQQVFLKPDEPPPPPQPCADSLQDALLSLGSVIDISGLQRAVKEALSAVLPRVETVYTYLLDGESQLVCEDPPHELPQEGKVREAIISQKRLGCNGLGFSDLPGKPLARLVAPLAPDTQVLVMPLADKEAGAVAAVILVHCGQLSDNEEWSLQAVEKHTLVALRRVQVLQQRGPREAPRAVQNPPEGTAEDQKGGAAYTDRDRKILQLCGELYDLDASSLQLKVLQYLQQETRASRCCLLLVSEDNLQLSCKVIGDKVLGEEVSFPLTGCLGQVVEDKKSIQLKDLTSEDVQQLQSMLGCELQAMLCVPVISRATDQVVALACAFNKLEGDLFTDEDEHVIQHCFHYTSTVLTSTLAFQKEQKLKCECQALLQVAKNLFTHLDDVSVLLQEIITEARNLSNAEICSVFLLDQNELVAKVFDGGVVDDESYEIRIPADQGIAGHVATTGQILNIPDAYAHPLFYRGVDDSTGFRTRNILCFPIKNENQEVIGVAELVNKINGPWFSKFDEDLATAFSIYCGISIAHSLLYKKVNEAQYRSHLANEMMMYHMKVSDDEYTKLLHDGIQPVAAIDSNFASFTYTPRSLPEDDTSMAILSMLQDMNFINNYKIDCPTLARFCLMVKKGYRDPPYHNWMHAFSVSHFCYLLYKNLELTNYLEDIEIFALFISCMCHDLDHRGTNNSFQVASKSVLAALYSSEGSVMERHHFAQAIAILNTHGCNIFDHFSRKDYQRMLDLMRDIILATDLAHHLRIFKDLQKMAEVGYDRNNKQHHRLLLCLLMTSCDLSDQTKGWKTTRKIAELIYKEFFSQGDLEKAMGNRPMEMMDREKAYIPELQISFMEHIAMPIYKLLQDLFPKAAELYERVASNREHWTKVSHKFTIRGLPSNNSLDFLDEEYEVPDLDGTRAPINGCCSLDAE

Molecules are shown by their SMILES. pIC50: −log10 of the molar value.

In one experiment the target is FLAG-tagged PDE2A1 (amino acids 2-941) (Homo sapiens (Human), UniProt O00408). The experiment can be described thus: IMAP TR-FRET PDE2A phosphodiesterase enzymatic assay.
Details: not given
Turning to `Cc1cc([C@@H]2CN(C(=O)c3cc(F)c(F)c(F)c3)CC(F)(F)C2)n2ncnc2n1` [Example 311, (5S)-3,3-Difluoro-5-{5-methyl-[1,2,4]triazolo[1,5-a]pyrimidin-7-yl}-1-(3,4,5-trifluorobenzoyl)piperidine], the pIC50 (in general, −log10 of the IC50, conventionally taken in molar units) is 6.00 to 7.00.

Compound `Cc1cc([C@@H]2CN(C(=O)c3ccc(F)c(C4CC4)c3)CCO2)n2ncnc2n1` [Example 318, (2S)-4-(3-Cyclopropyl-4-fluorobenzoyl)-2-{5-methyl-[1,2,4]triazolo[1,5-a]pyrimidin-7-yl}morpholine] had a pIC50 of 6.00 to 7.00.

With `Cc1cc([C@@H]2CN(C(=O)c3cc(F)c(F)c(C4CC4)c3)CCO2)n2ncnc2n1` [Example 320, (2S)-4-(3-Cyclopropyl-4,5-difluorobenzoyl)-2-{5-methyl-[1,2,4]triazolo[1,5-a]pyrimidin-7-yl}morpholine], the pIC50 is 6.00 to 7.00.

In the case of `Cc1cc([C@@H]2CN(C(=O)c3ccc(C4CC4)c(F)c3)CCO2)n2ncnc2n1` [Example 323, (2S)-4-(4-Cyclopropyl-3-fluorobenzoyl)-2-{5-methyl-[1,2,4]triazolo[1,5-a]pyrimidin-7-yl}morpholine], the pIC50 was 6.00 to 7.00.

On to `Cc1cc([C@H]2CN(C(=O)c3ccc(C4CC4)c(F)c3)CCO2)n2ncnc2n1` [Example 324, (2R)-4-(4-Cyclopropyl-3-fluorobenzoyl)-2-{5-methyl-[1,2,4]triazolo[1,5-a]pyrimidin-7-yl}morpholine], for which the pIC50 was 5.00 to 6.00.

`Cc1cc([C@@H]2CN(C(=O)c3ccc(C4CC4)c(F)c3F)CCO2)n2ncnc2n1` [Example 325, (2S)-4-(4-Cyclopropyl-2,3-difluorobenzoyl)-2-{5-methyl-[1,2,4]triazolo[1,5-a]pyrimidin-7-yl}morpholine] showed a pIC50 of 6.00 to 7.00.

As to `Cc1cc([C@H]2CN(C(=O)c3ccc(C4CC4)c(F)c3F)CCO2)n2ncnc2n1` [Example 326, (2R)-4-(4-Cyclopropyl-2,3-difluorobenzoyl)-2-{5-methyl-[1,2,4]triazolo[1,5-a]pyrimidin-7-yl}morpholine], the pIC50 is 5.00 to 6.00.

With `Cc1cc([C@H]2CN(C(=O)c3ccc(Br)c(Cl)c3)CCO2)n2ncnc2n1` [Example 328, (2R)-4-(4-Bromo-3-chlorobenzoyl)-2-{5-methyl-[1,2,4]triazolo[1,5-a]pyrimidin-7-yl}morpholine], the pIC50 is 6.00 to 7.00.

In turn, `Cc1cc(F)cc(C(=O)N2CCO[C@H](c3cc(C)nc4ncnn34)C2)c1` [Example 332, (2S)-4-(3-Fluoro-5-methylbenzoyl)-2-{5-methyl-[1,2,4]triazolo[1,5-a]pyrimidin-7-yl}morpholine] had a pIC50 of 6.00 to 7.00.

On to `Cc1cc([C@@H]2CN(C(=O)c3ccc(F)c(C)c3)CCO2)n2ncnc2n1` [Example 333, (2S)-4-(4-Fluoro-3-methylbenzoyl)-2-{5-methyl-[1,2,4]triazolo[1,5-a]pyrimidin-7-yl}morpholine], for which the pIC50 was 6.00 to 7.00.

The compound `Cc1cc([C@@H]2CCCN(C(=O)[C@@H]3COc4ccccc4C3)C2)n2ncnc2n1` [Example 334, (3R)-1-[(3S)-3,4-Dihydro-2H-1-benzopyran-3-carbonyl]-3-{5-methyl-[1,2,4]triazolo[1,5-a]pyrimidin-7-yl}piperidine] gave a pIC50 of 5.00 to 6.00.

Regarding `Cc1cc([C@H]2CN(C(=O)c3ccc(C(F)(F)F)c(Br)c3)CCO2)n2ncnc2n1` [Example 337, (2R)-4-[3-Bromo-4-(trifluoromethyl)benzoyl]-2-{5-methyl-[1,2,4]triazolo[1,5-a]pyrimidin-7-yl}morpholine], the pIC50 is less than 5.00.

`Cc1cc(C2CN(C(=O)c3cc(C)n(-c4ccc(F)cc4)n3)CCO2)n2ncnc2n1` (stereo not drawn) [Example 345, 4-[1-(4-Fluorophenyl)-5-methyl-1H-pyrazole-3-carbonyl]-2-{5-methyl-[1,2,4]triazolo[1,5-a]pyrimidin-7-yl}morpholine] gave a pIC50 of 5.00 to 6.00.

`Cc1cc(C2CN(C(=O)c3cc(C)n(-c4ccc(C(C)C)cc4)n3)CCO2)n2ncnc2n1` (stereo not drawn) [Example 347, 4-{5-Methyl-1-[4-(propan-2-yl)phenyl]-1H-pyrazole-3-carbonyl}-2-{5-methyl-[1,2,4]triazolo[1,5-a]pyrimidin-7-yl}morpholine] had a pIC50 of 5.00 to 6.00.

The experiment is the same for the next values; noted with them: IMAP TR-FRET, 200 nM FAM-cAMP substrate, 11-point half-log dose-response.
Turning to `Cc1cc([C@@H]2CN(C(=O)c3cc(Cl)c(Cl)c(Cl)c3)CC(F)(F)C2)n2ncnc2n1` [Example 312, (5S)-3,3-Difluoro-5-{5-methyl-[1,2,4]triazolo[1,5-a]pyrimidin-7-yl}-1-(3,4,5-trichlorobenzoyl)piperidine], the “PDE2 (pIC50)” value is listed as more than 7.

For `Cc1cc([C@@H]2CN(C(=O)c3cc(Cl)c(F)c(Cl)c3)CC(F)(F)C2)n2ncnc2n1` [Example 313, (5S)-1-(3,5-Dichloro-4-fluorobenzoyl)-3,3-difluoro-5-{5-methyl-[1,2,4]triazolo[1,5-a]pyrimidin-7-yl}piperidine], the “PDE2 (pIC50)” value is more than 7.

On to `Cc1cc([C@@H]2CN(C(=O)c3cc(F)c(F)c(Cl)c3)CC(F)(F)C2)n2ncnc2n1` [Example 314, (5S)-1-(3-Chloro-4,5-difluorobenzoyl)-3,3-difluoro-5-{5-methyl-[1,2,4]triazolo[1,5-a]pyrimidin-7-yl}piperidine], for which the “PDE2 (pIC50)” value is more than 7.

As for `Cc1cc([C@@H]2CN(C(=O)c3cc(F)c(F)c(Br)c3)CC(F)(F)C2)n2ncnc2n1` [Example 315, (5S)-1-(3-Bromo-4,5-difluorobenzoyl)-3,3-difluoro-5-{5-methyl-[1,2,4]triazolo[1,5-a]pyrimidin-7-yl}piperidine], the “PDE2 (pIC50)” value is more than 7.

As to `Cc1cc([C@@H]2CN(C(=O)c3cccc(C4CC4)c3)CCO2)n2ncnc2n1` [Example 316, (2S)-4-(3-Cyclopropylbenzoyl)-2-{5-methyl-[1,2,4]triazolo[1,5-a]pyrimidin-7-yl}morpholine], the “PDE2 (pIC50)” value is given as more than 7.

With `Cc1cc([C@@H]2CN(C(=O)c3cccc(C4CC4)c3)CC(F)(F)C2)n2ncnc2n1` [Example 317, (5S)-1-(3-Cyclopropylbenzoyl)-3,3-difluoro-5-{5-methyl-[1,2,4]triazolo[1,5-a]pyrimidin-7-yl}piperidine], the “PDE2 (pIC50)” value is recorded as more than 7.

As to `Cc1cc([C@@H]2CN(C(=O)c3ccc(C4CC4)c(F)c3)CC(F)(F)C2)n2ncnc2n1` [Example 321, (5S)-1-(4-Cyclopropyl-3-fluorobenzoyl)-3,3-difluoro-5-{5-methyl-[1,2,4]triazolo[1,5-a]pyrimidin-7-yl}piperidine], the “PDE2 (pIC50)” value is given as more than 7.

Consider `Cc1cc([C@@H]2CN(C(=O)c3ccc(C4CC4)c(F)c3F)CC(F)(F)C2)n2ncnc2n1` [Example 322, (5S)-1-(4-Cyclopropyl-2,3-difluorobenzoyl)-3,3-difluoro-5-{5-methyl-[1,2,4]triazolo[1,5-a]pyrimidin-7-yl}piperidine], for which the “PDE2 (pIC50)” value is listed as more than 7.

`Cc1cc([C@@H]2CN(C(=O)c3ccc(Br)c(Cl)c3)CC(F)(F)C2)n2ncnc2n1` [Example 327, (5S)-1-(4-Bromo-3-chlorobenzoyl)-3,3-difluoro-5-{5-methyl-[1,2,4]triazolo[1,5-a]pyrimidin-7-yl}piperidine]: the “PDE2 (pIC50)” value is reported as more than 7.

Regarding `Cc1cc([C@@H]2CN(C(=O)c3ccc(Br)c(Cl)c3)CCO2)n2ncnc2n1` [Example 329, (2S)-4-(4-Bromo-3-chlorobenzoyl)-2-{5-methyl-[1,2,4]triazolo[1,5-a]pyrimidin-7-yl}morpholine], the “PDE2 (pIC50)” value is on record as more than 7.

`Cc1cc([C@@H]2CN(C(=O)c3ccc(C4CC4)c(Cl)c3)CCO2)n2ncnc2n1` [Example 330, (2S)-4-(3-Chloro-4-cyclopropylbenzoyl)-2-{5-methyl-[1,2,4]triazolo[1,5-a]pyrimidin-7-yl}morpholine]: the “PDE2 (pIC50)” value was more than 7.

With `Cc1cc([C@@H]2CN(C(=O)c3ccc(C4CC4)c(Cl)c3)CC(F)(F)C2)n2ncnc2n1` [Example 331, (5S)-1-(3-Chloro-4-cyclopropylbenzoyl)-3,3-difluoro-5-{5-methyl-[1,2,4]triazolo[1,5-a]pyrimidin-7-yl}piperidine], the “PDE2 (pIC50)” value is more than 7.

For `Cc1cc([C@H]2CCCN(C(=O)[C@@H]3COc4ccccc4C3)C2)n2ncnc2n1` [Example 335, (3S)-1-[(3S)-3,4-Dihydro-2H-1-benzopyran-3-carbonyl]-3-{5-methyl-[1,2,4]triazolo[1,5-a]pyrimidin-7-yl}piperidine], the “PDE2 (pIC50)” value is recorded as more than 7.

Regarding `Cc1cc([C@H]2CCCN(C(=O)[C@H]3COc4ccccc4C3)C2)n2ncnc2n1` [Example 336, (3S)-1-[(3R)-3,4-Dihydro-2H-1-benzopyran-3-carbonyl]-3-{5-methyl-[1,2,4]triazolo[1,5-a]pyrimidin-7-yl}piperidine], the “PDE2 (pIC50)” value is recorded as more than 7.

In the case of `Cc1cc(C2CN(C(=O)c3ccc(Cl)c(I)c3)CC(F)(F)C2)n2ncnc2n1` (stereo not drawn) [Example 339, 1-[(4-Chloro-3-iodophenyl)carbonyl]-3,3-difluoro-5-{5-methyl-[1,2,4]triazolo[1,5-a]pyrimidin-7-yl}piperidine], the “PDE2 (pIC50)” value is given as more than 7.

Turning to `Cc1cc([C@@H]2CN(C(=O)c3ccc4occc4c3)CC(F)(F)C2)n2ncnc2n1` [Example 341, (5S)-1-(1-Benzofuran-5-carbonyl)-3,3-difluoro-5-{5-methyl-[1,2,4]triazolo[1,5-a]pyrimidin-7-yl}piperidine], the “PDE2 (pIC50)” value is recorded as more than 7.

On to `COc1ccc(C(=O)N2CCO[C@H](c3cc(C)nc4ncnn34)C2)cc1C` [Example 343, (2S)-4-(4-Methoxy-3-methylbenzoyl)-2-{5-methyl-[1,2,4]triazolo[1,5-a]pyrimidin-7-yl}morpholine], for which the “PDE2 (pIC50)” value is listed as more than 7.

Turning to `Cc1cc(C2CCCN(C(=O)C3COc4ccc(F)cc4C3)C2)n2ncnc2n1` (stereo not drawn) [Example 344, 1-(6-Fluoro-3,4-dihydro-2H-1-benzopyran-3-carbonyl)-3-{5-methyl-[1,2,4]triazolo[1,5-a]pyrimidin-7-yl}piperidine], the “PDE2 (pIC50)” value was more than 7.

As for `Cc1cc(C2CCCN(C(=O)c3cc(C)n(-c4ccc(C(C)C)cc4)n3)C2)n2ncnc2n1` (stereo not drawn) [Example 346, 1-{5-Methyl-1-[4-(propan-2-yl)phenyl]-1H-pyrazole-3-carbonyl}-3-{5-methyl-[1,2,4]triazolo[1,5-a]pyrimidin-7-yl}piperidine], the “PDE2 (pIC50)” value is on record as more than 7.
